## Yeast mating assay B: variants of the scFv Ab-14

The measurements come from Li et al. 2023 (doi:10.1038/s41467-023-39022-2) through the FLAb antibody collection.

All variants were tested on one target, the spike HR2 peptide PDVDLGDISGINAS (SARS-CoV-2).

The variants keep the light chain, the linker and the frameworks of Ab-14 (scFv order VH, the linker GGGGSGGGGSGGGGS, VL).
VH: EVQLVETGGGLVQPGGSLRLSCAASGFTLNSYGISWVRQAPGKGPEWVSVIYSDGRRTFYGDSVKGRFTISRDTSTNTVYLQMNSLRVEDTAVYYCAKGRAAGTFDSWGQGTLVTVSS
VL: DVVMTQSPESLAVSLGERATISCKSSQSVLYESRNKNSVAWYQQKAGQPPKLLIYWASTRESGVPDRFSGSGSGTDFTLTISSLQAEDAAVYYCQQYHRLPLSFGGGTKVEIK

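The variants were designed computationally from a first round of random CDR variants and then made and measured. Group labels follow the data file (Ctrl: baseline library sampled from a position-specific scoring matrix, with some repeated check sequences; Rand: our label for a block that the file lists under HC and that is probably the random mutants of the ten best first-round binders; En: ensemble of fine-tuned language models; GP: Gaussian process model; GPLM: also part of the Gaussian process libraries; HC: hill climbing; Gen: genetic algorithm; Gibbs: Gibbs sampling; a sequence that several methods proposed may carry one label only). Affinity was read by AlphaSeq, a pooled yeast mating assay with surface-displayed partners. After mating in shaken culture at 30 °C for 16 h, diploids were selected and their barcode pairs sequenced. The ratio of observed to expected reads was calibrated, replicate by replicate, on BCL2-family standards whose Kd was known from biolayer interferometry. Mating was done six times.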

Variants are written as CDR1, CDR2 and CDR3 of the heavy chain (limits as in the source). Parent: GFTLNSYGIS, VIYSDGRRTFYGDSVK, GRAAGTFDS.
Numbers give log10(Kd / nM), so 0 is 1 nM and 3 is 1 µM. Smaller is tighter.
A mean of the replicates is given; it leaves out those without a signal.
An entry "nd" has no value in the source: the pair was not observed among the diploids in any replicate. This suggests poor binding but is not conclusive.

CDR-H1,CDR-H2,CDR-H3,group,"mean, log10 nM",seen in
GFTLDSYGIS,VIYSDGQRTFYGDSVK,GRAAGTALS,Rand,nd,0/6
GFDLNEYGIS,VIYADGVRTAYADSVK,GNNAGTFDQ,En_Gen,-0.40,6/6
GFELNSYGIS,VIYADGRRTFYGDSVK,GQAAGTFDQ,GP_Gen,-0.11,6/6
GFTLNEYGIS,VIYSDGRRTFYGDSVK,GRHAGTFDG,GPLM_HC,1.19,3/6
GFDLNSYGIS,VIYSDGRRTAYGDSVK,GRAAGTFDA,GP_Gen,nd,0/6
GFDVDEYGIS,VIYADGFRTSYTADVK,GSQVGNALV,En_Gibbs,2.79,1/6
FFDLNSYGIS,VIYSDGRRTFYGDSVK,GRAAGWFNS,Rand,2.16,2/6
GFELNSYGIS,VIYSDGRRTFYGDSVK,GEAAGTFDA,GP_Gen,0.70,6/6
GFQLDEYGIS,VIYADGRRTFYQDSVK,GEVAGTFDQ,En_HC,0.32,6/6
GFDLNSYGIS,VIYSDGIRTFYGDSVK,GYAAGTFDS,Ctrl,0.76,6/6
GFQLNSYGIS,VIYSDGRRTAYGDSVK,GRQAGTFDS,GP_Gen,0.92,6/6
GFELNSYGIS,VIYSDGRRTFYQDSVK,GEVAGTFDS,GP_Gibbs,0.32,5/6
GESLNEYGIS,VIYADGQRVKYSNNVK,GLHAGDFDM,En_Gibbs,nd,0/6
GFDLDEYGIS,VIYADGMRTAYQQKVK,GRETDTNVV,En_Gibbs,nd,0/6
GFNLDEYGIS,VIYADGRRTFYADSVK,GQVAGTFDQ,En_HC,-0.61,6/6
GFTLNSYGIS,VIYSDGMRTFYSDSVK,GMTAGTFDS,GP_HC,0.15,6/6
GFGIGEYGIS,VIYADGRRTFYSDDVK,GNMIVTGVD,En_Gibbs,1.84,1/6
GFSLNSYGIS,VIYSDGRRTFYADSVK,GRLAGTFDT,GPLM_Gen,0.05,6/6
GFELNSYGIS,VIYSDGRRTFYGDSVK,GKTAGTFDL,GP_Gen,0.33,6/6
GFQLDEVGIS,VIYADGARTAYKSKVK,GGNGDKFDI,En_Gibbs,nd,0/6
GFELNSYGIS,VIYSDGRRTFYDDSVK,GEAAGTFDS,GP_Gibbs,0.73,6/6
GFDLNEYGIS,VIYADGSRKVYADSVK,GNVAGTFDV,En_Gen,-0.59,6/6
GFNLNSYGIS,VIYSDGRRTFYADQVK,GRTAGTFDS,GPLM_Gen,0.23,6/6
GFNLDEYGIS,VIYADGRRTFYADSVK,GEIAGTFDT,En_HC,-0.18,6/6
GFDLNEYGIS,VIYADGMRTFYADSVK,GNTAGTFDQ,En_Gen,-0.70,6/6
GFNLDEYGIS,VIYADGYRRMYIDAVK,GTNSGFGGT,En_Gibbs,nd,0/6
GFTLLSYGIS,VIYSDGRRTFYLDSVK,GRAAGTFDD,Ctrl,nd,0/6
GFTSNSREIS,VIYADGRRTGYGDSTK,GRAAGTNKS,Rand,nd,0/6
GFTLNSYGIS,VIYSDGRVTFYGDSVK,GKLAGTFDS,Ctrl,nd,0/6

The remaining entries, values ahead:

"mean, log10 nM",seen in,CDR-H1,CDR-H2,CDR-H3,group
nd,0/6,GFDLNSYGIS,VIYSDGRRTFYGKSVK,GRAAHWNNS,Rand
0.56,6/6,GFELNEYGIS,VIYSDGRRTFYQDSVK,GKAAGTFDS,GP_Gen
0.04,6/6,GFDLDEYGIS,VIYADGVRTAYADDVK,GNQAGTFDV,En_Gen
1.61,6/6,GFDIEEFGIS,VIYADGRQVAYAQKVK,GTIAGTFVD,En_Gibbs
nd,0/6,GFDLNSYGIS,VIYSDGRRTFYGDSVK,GRAADIFDS,GPLM_HC
0.44,6/6,GFSLNEYGIS,VIYSDGRRTFYKDSVK,GNAAGTFDS,GP_Gen
0.53,5/6,GFDLNEYGIS,VIYADGMRQAYADSVK,GNVAGTFDQ,En_Gen
1.60,5/6,GFSLNSYGIS,VIYSDGRRTFYGDSVK,GRQAGTFDN,GPLM_Gen
0.12,6/6,GFELNEYGIS,VIYSDGRRTFYKDSVK,GRTAGTFDS,GPLM_Gibbs
0.98,4/6,GFSLNNYGIS,VIYSDGRRTFYCDSVK,GRTAGTFDS,GPLM_Gen
nd,0/6,GFDLLEYGIS,VIYADGSRVAYKNNVK,GKNGATGSN,En_Gibbs
-0.34,6/6,GFDLDEYGIS,VIYADGLRTAYTDSVK,GNVAGTFDV,En_Gen
2.59,1/6,GFTLNSYGIS,VIYRDGRRTFYGDQVK,GRAAGTFCS,Ctrl
1.86,1/6,GFDINEYGIS,VMYADGSRSVYQDKVK,GFQSGTLDM,En_Gibbs
0.18,6/6,GFELNEYGIS,VIYSDGRRTFYHDSVK,GRTAGTFDT,GP_Gen
nd,0/6,GFDLEKYGIS,VIYADGKRVAYQDAVK,GGTGGMFMV,En_Gibbs
nd,0/6,GFTLNSYGIS,VIYSDGRRTFYLDSVK,GRAAGLFES,Ctrl
nd,0/6,GFTLNSYGIS,VIYSDGRRTFYGDSVK,GGAVGTFDS,Ctrl
1.49,6/6,GFTLNSYGIS,VIYSDGRRTFYSNSVK,GRAAGTFDS,Ctrl
-0.73,4/6,GFDLNEYGIS,VIYADGMRTQYIDSVK,GNNAGTFDV,En_HC
1.70,2/6,GFSLNEYGIS,VIYSDGRRTFYCDSVK,GRNAGTFDS,GP_HC
1.00,6/6,GFTLNDYGIS,VIYSDGRRTFYGDSVA,GRAAGTFDS,Ctrl
0.50,6/6,GFQLNSYGIS,VIYSDGRRTFYADQVK,GREAGTFDS,GP_Gibbs
nd,0/6,GFHLNSYGVS,VIYSDGRRTFYGDSVK,GRAAGTFDP,Ctrl
-0.62,6/6,GFDLNEYGIS,VIYADGMRTAYADKVK,GNVAGTFDL,En_Gen
nd,0/6,GFDIDEFGIS,VIYADGSRQVYQDNVK,GVGTGTFTL,En_Gibbs
0.39,6/6,GFELNSYGIS,VIYSDGRRTFYTDSVK,GSAAGTFDS,GP_Gibbs
nd,0/6,GFTLNSYGIS,VIYSDGRRTFYGDSVK,SRAAGTFDA,Ctrl
nd,0/6,GFNLDEYGVS,VIYADGFRVAYAESVK,GLMQFGFTI,En_Gibbs
1.20,2/6,GFTLNEYGIS,VIYSDGMRTFYGDSVK,GRQAGTFIS,GP_HC

As a blank, each scFv also met three strains without target: over all heavy chain designs, 1% of these pairings were detected, typically at 2.08 and seldom below 0.84.
A sequence measured in both rounds can read differently, since the two assays cover different ranges.
The authors' rule: three or more of the six replicates give a measured affinity, fewer mean a poor binder.